# Measured values taken from PubChem BioAssay AID652083 (The Scripps Research Institute Molecular Screening Center, 2013).
# The list shows a part of the results.
# Test system: SKCa channel
# Experiment: PubChem AID 652083
# Conditions: CEREP radioligand binding panel, % inhibition at 10 uM, stronger effect = higher value
compound,measurement,value
COC(=O)c1cc(Br)cnc1N1CCC(NC2CCCCC2)C(O)C1 (stereo unspecified),inhibition of specific binding,-24%
